# Target: recombinant human AMCase (Homo sapiens, UniProt Q9BZP6)
# Sequences of proteins named here, by UniProt entry; tags and fusion partners are left off. Residues count along the entry.
# UniProt Q9BZP6, 22-476 limits assumed: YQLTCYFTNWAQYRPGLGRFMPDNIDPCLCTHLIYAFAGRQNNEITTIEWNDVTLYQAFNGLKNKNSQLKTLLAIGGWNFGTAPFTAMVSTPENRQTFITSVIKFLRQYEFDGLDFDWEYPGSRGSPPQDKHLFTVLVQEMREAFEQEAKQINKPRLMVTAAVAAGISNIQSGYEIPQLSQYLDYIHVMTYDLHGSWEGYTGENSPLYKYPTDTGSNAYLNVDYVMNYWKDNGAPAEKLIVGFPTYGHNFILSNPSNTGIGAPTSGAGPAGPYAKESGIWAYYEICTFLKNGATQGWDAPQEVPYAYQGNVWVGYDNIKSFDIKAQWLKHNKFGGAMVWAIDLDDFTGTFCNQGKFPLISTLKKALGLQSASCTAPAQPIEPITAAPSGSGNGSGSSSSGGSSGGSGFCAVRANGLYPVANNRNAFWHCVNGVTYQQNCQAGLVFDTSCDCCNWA
# Experiment: Human AMCase Activity Assay
# Format: biochemical
# Settings: read-out: Activity (IC50 value key); recombinant hAMCase, 4-methylumbelliferyl chitobioside substrate, citrate buffer pH 5.2, 37° C., 60 minutes; tested form: HCl
smiles,measurement,value
Nc1n[nH]c(N2CCC(NS(=O)(=O)Cc3ccc(Br)cc3)C(CO)C2)n1 (stereo not shown),IC50,1 to 10 µM

# Source: patent US10214531B2 (Institute for Drug Discovery, LLC, priority 2013, dated 2019)
